These results are taken from patent publication US20060194819A1, “Activation specific inhibitors of nf-kb and method of treating inflammatory processes in cardio-vascular diseases” (PROCORDE GMBH, priority 2003, published 2006).

Sequences of proteins named here, by UniProt entry; tags and fusion partners are left off.
UniProt O14920, whole entry: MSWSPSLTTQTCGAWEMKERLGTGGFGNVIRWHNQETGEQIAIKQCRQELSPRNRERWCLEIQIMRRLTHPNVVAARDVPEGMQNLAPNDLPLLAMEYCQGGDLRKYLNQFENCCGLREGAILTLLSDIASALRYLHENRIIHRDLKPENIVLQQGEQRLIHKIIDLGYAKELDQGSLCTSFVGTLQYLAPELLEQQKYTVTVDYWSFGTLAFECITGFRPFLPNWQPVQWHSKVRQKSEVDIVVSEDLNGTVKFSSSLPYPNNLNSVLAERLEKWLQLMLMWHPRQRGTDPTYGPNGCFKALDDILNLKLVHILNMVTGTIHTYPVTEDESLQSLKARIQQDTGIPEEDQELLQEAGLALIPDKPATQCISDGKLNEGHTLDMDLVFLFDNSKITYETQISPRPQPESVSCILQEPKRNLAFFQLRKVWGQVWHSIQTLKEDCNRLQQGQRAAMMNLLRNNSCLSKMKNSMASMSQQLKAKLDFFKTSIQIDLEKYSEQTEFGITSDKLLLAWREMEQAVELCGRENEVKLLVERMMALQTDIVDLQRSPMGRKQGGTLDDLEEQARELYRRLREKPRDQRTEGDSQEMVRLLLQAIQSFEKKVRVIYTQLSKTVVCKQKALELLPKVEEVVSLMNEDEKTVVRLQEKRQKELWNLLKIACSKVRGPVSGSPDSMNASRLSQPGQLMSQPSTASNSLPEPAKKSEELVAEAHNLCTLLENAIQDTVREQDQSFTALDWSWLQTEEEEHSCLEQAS
UniProt O15111, whole entry: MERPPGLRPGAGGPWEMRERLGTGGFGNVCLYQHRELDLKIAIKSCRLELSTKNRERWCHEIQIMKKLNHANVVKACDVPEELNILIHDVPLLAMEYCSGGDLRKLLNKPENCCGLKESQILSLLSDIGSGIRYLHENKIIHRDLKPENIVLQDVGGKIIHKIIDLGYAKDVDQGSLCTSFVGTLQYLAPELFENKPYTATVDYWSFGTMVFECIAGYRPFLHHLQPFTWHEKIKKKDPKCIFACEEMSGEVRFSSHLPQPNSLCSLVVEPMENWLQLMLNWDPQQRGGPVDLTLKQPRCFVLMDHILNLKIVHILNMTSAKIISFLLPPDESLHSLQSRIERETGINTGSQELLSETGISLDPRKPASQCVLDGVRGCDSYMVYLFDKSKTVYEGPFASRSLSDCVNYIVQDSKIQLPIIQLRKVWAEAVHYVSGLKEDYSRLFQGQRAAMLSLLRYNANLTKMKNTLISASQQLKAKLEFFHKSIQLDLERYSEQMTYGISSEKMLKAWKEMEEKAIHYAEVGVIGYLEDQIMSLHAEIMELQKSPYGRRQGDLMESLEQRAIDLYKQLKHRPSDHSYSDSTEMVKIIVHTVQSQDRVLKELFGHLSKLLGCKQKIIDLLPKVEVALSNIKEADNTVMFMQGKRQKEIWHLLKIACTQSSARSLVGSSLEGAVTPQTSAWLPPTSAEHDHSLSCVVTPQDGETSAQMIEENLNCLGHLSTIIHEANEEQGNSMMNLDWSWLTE
UniProt Q9Y6K9, whole entry: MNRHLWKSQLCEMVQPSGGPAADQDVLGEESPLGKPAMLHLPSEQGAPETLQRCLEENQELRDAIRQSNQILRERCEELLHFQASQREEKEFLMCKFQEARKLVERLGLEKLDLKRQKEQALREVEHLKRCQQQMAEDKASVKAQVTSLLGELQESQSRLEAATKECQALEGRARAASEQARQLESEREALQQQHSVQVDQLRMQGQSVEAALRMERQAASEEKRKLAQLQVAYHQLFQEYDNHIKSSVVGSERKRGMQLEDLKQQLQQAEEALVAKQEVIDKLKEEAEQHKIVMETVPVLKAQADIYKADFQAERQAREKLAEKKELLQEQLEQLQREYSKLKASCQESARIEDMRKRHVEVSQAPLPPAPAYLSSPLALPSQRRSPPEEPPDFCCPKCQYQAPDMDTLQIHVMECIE

One data set has as its system HeLa cells. The experiment in a line: Cell viability, WST-1 assay. How it is done:
[…] The medium was changed and 10 μL of the WST-1 reagent was added to each well. After 2 h the absorption of 450 nm was measured in an Elisa-reader.
For orientation: Formazan colour is commonly taken as a measure of viable cells.

For the next data set, the target named is IKK-complex (Homo sapiens, UniProt O14920+O15111+Q9Y6K9). Nature of the data set: In vitro/cell free kinase assay: IKK-complex immunoprecipitated from TNF alpha stimulated HeLa cells, drugs added afterwards, alpha screen. The conditions noted are these: increasing concentrations on isolated IKK complex. Here is the method:
In vitro/cell free kinase assay protocol: HeLa cells were maintained in Dulbecco's modified Eagle's medium (Invitrogen) supplemented with 10% fetal bovine serum, 2 mM L-glutamine, penicillin (50 units/ml) and streptomycin (50 μg/ml). 24 h before treatment with TNF alpha HeLa cells were plated at a density of 1×10^7 per well in 175-mm cell culture dishes to 90% confluences.
The cells were stimulated with 20 ng/ml TNF alpha (Roche) without drugs. After 7 min the cells were washed twice with ice cold PBS followed by scraping and transferring into a 1.5 ml micro centrifuge tube. […] 6.6 μl of detection-buffer (20 mM Hepes pH 7.5, 100 mM NaCl, 1% Tween, 0.1 mM BSA, 50 μg/ml Protein A-Acceptor beads, 250 μg/ml Streptavidin-Donor beads (both Perkin-Elmer), 4 nM anti-phospho-IKBα-antibody (Santa Cruz Biotechnology) was dispensed to each well. After incubation for 1.5 h the plate was measured by alpha screen reader (Perkin Elmer).

Data set [1] has as its target binding of IKK alpha/beta to NEMO (Homo sapiens, UniProt O14920+O15111+Q9Y6K9). Nature of the data set: Co-precipitation of IKK alpha/beta with anti-NEMO-antibody from compound treated, TNF alpha stimulated HeLa cells. The conditions noted are these: for IKK-alpha/IKK-beta in the co-precipitated complex with NEMO, compared to control without compound: HeLa cells. How it is done:
FIG. 3b. Disruption of the IKK alpha/beta complex to NEMO binding by compound 73. HeLa cells were treated with 10 μM and 100 μM of compound 73, followed by TNF alpha stimulation (20 ng/ml). IKK-complex was co-precipitated from cytosolic extract with an anti-NEMO-antibody (Santa Cruz) and Protein A-Sepharose. The precipitate was analysed for the IKK alpha/beta protein in Western-Blot with a specific anti-IKK alpha/beta-antibody. In the control with unspecific rabbit-IgG antibody for immnoprecipitation, no co-precipitation with IKK alpha/beta was detectable.
To specifically examine the disruption of the IKK complex we analysed protein expression of IKK-alpha/beta after immunoprecipitation with anti-NEMO-antibody (Santa Cruz Biotechnology) (FIG. 3b.). A clear correlation in IKKalpha/beta amount before and after immunoprecipitation was found. With unchanged detection of NEMO protein, the level of IKKalpha/beta protein was reduced in a dose dependent manner by compound 73. Compared to the control without compound 73 IKK-alpha/IKK-beta was reduced to 27% at 10 μM and 91% at 100 μM in the co-precipitated complex with NEMO.

The target of another data set is NEMO (Homo sapiens, UniProt Q9Y6K9). The experiment in a line: Degradation of the IKK-complex in HeLa cells, Western blot with anti-NEMO-antibody. The settings on record: for level of NEMO protein: various concentrations, TNF alpha 20 ng/ml. Here is the method: 3×10^6 HeLa cells were incubated with different drugs at increasing concentrations for 1 h, washed twice with PBS and stimulated with 20 ng/ml TNF alpha (Roche). After 7 min the cells were washed twice with ice cold PBS followed by scraping and transferring into a 1.5 ml microcentrifuge tube. (After centrifugation by 2000 rpm for 2 min by 4° C. the PBS supernatant was removed and 200 μl Lyse-buffer (10 mM Hepes, pH 7.9, 0.1% NP40, 300 mM Sucrose, 10 mM KCl, 15 mM MgCl2, 1 mM DTT, 0.5 mM PMSF and antipain, aprotinin, leupeptin each 0.75 μg/ml (Sigma) was added to the pellet. The resuspented pellet was incubated on ice for 5 min and centrifuged at 13000 g for 30s.)
Cytosolic extracts were isolated as described earlier.
30 μL cytosolic extract, approximately extract from 4×10^5 cells, was loaded to a 4-20% polyacrylamid gels (BioRad). After electrophoresis the proteins were transferred to a nitrocellulose membrane using the wet blotting technique. First the membrane was blocked with Roti-Block (Roth) and afterwards incubated with polyclonal antibodies against IKK alpha/beta or NEMO (both Santa Cruz Biotechnology, used at 1:200 dilution). This incubation was followed by the appropriate horseradish peroxidase-conjugated secondary antibody (Dianova) at 1:10000 dilution. Antibody binding was visualized on x-ray film using the Western blot Chemiluminescent Reagent Detection Kit (Santa Cruz).

Take `CCOC(=O)C1=C(C)N=c2sc(=Cc3ccc(-c4cccc(C(=O)O)c4)o3)c(=O)n2C1c1cc(OC)c(OC)cc1Br` (centres unmarked): the “decrease in metabolic activity compared with untreated control (WST-1)” value in the data set with HeLa cells (HeLa cells, 30 μM, 3 h) is “no significant decrease”. Besides, in the data set with HeLa cells (concentrations and conditions of the described assays), the “toxicity for HeLa cells (WST-1)” value is “not found to be toxic”. Also, on IKK-complex, the “inhibition of IKK activity in cell-free assay” value is given as “dose-dependently inhibited”. Besides, the “binding of IKK alpha/beta to NEMO in activated HeLa cells” value in data set [1] (10 μM and 100 μM) is “dose-dependently inhibited”. The “IKK-alpha/IKK-beta in the co-precipitated complex with NEMO, compared to control without compound” value in data set [1] (10 μM) was determined as 27%; in data set [1] (100 μM), 91%. For the same compound, the NEMO protein amount entry at NEMO (3.3 μM) was “Decreased amounts”. For the same compound, the NEMO protein degradation result is “significant degradation” on NEMO (20 μM); “nearly completely abolition” on NEMO (33 μM and 100 μM). The “level of NEMO protein” value was “concentration-dependently degraded” on NEMO (listed as COM 73) and “dose dependently reduced” at NEMO (listed as compound 73).
